Biological target: T1, human recombinant choline acetyltransferase (rChAT) (Homo sapiens, UniProt P28329)
T1 construct: made in house; host or cells: E. coli BL21 Rosetta2
T1 sequence (P28329 1-630 isoform P28329-3): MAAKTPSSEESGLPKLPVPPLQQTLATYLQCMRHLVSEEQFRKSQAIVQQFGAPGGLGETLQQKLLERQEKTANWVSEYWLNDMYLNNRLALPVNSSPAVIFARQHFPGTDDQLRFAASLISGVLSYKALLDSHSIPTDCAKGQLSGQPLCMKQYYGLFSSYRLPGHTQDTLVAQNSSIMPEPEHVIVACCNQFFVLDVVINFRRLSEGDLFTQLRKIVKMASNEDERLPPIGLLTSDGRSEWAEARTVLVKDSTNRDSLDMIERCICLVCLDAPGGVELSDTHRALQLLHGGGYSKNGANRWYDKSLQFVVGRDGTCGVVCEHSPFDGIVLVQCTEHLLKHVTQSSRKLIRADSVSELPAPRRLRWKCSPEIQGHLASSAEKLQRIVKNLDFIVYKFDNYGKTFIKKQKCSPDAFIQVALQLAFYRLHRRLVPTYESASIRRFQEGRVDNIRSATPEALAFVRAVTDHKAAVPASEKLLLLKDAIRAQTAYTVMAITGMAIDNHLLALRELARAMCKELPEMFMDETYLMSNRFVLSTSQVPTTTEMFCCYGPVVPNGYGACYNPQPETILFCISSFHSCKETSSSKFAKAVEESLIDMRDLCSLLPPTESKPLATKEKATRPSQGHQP
Assay: Fluorometric in vitro ChAT activity assay (human rChAT, CPM read-out)
Format: biochemical
Details: each peptide separately, no gelatin, fitted in 0–20 ng/mL (Aβ42) and 0–32 ng/mL (Aβ40) ranges; for EC50 for ChAT activation: ≥3 independent experiments
Procedure: Recombinant ChAT was purified as described previously ([Kumar et al., 2016a], [2017]). Briefly, DYT media was inoculated with an O/N culture of E. coli BL21 Rosetta2 transformed with pProExHTa-ChAT (a gift from Dr. Brian Shilton, Department of Biochemistry, University of Western Ontario, London, ON, Canada). The bacteria were grown in shaking incubator at 37°C with 200 rpm until the optical density at 600 nm reached 0.5. After which, 0.5 mM IPTG was added and His6-ChAT was expressed for approximately 16 h at 18°C. Next, the cells were harvested and His6-ChAT was purified with “Ni-NTA fast start Kit” (Qiagen) following the manufacturer’s instructions. The elution buffer was exchanged to storage buffer [10 mM Tris pH 7.4, 500 mM NaCl, 10% (v/v) glycerol] using 30 kDa molecular weight cutoff Amicon Ultra concentrators (Merck Millipore). The purity and molecular weight of the protein were determined using SDS-PAGE electrophoresis. The total protein concentration was determined using DC Protein Assay (Bio-Rad). The purified protein was aliquoted and stored at −80°C.
ChAT activity was measured with our newly developed robust in-house fluorometric assay, using human rChAT protein. […]
Then, 50 μL of a cocktail-A [dilution buffer containing 10 μM ACoA (final concentration) and 15 μM CPM (final concentration)] was added to each well. Immediately after adding the cocktail-A, the changes in fluorescence were monitored kinetically at 479 nm emission wavelength after exciting at 390 nm wavelength, at 1- to 2-min intervals for 15–20 min using a microplate spectrophotometer reader (Infinite M1000, Tecan).
Each Aβ peptide dilution was run in triplicates. […] The kinetic rate of enzyme activity (as ΔRFU/min slope data) was calculated and processed using the GraphPad Prism 7 analysis software. The actual rate values as well as statistical analysis values (P-values) of ChAT activity at different Aβ concentrations or alone were calculated after fitting the curve with the linear regression function in the GraphPad Prism 7. […]

Substance: Aβ40: amyloid-β peptide, recombinant, purchased from rPeptide (Cat no. A-1153-1)
- EC50 for ChAT activation: ~0.8 ng/mL

Substance: Aβ42: amyloid-β peptide, recombinant, purchased from rPeptide (Cat no. A-1166-1)
- EC50 for ChAT activation (Figure 3) (mean ± SD of ≥3 independent experiments): ~ 0.068 ng/ml
- EC50 for ChAT activation: ~0.07 ng/mL

— publication PMC6146036 (Frontiers in Molecular Neuroscience, 2018)
